Activity data for 26 molecules are collected here from PubChem BioAssay AID1259318 (Sanford-Burnham Center for Chemical Genomics, 2017).

Chains of the proteins cited; added tags and fusions are not shown.
UniProt P20393, whole entry, looked up: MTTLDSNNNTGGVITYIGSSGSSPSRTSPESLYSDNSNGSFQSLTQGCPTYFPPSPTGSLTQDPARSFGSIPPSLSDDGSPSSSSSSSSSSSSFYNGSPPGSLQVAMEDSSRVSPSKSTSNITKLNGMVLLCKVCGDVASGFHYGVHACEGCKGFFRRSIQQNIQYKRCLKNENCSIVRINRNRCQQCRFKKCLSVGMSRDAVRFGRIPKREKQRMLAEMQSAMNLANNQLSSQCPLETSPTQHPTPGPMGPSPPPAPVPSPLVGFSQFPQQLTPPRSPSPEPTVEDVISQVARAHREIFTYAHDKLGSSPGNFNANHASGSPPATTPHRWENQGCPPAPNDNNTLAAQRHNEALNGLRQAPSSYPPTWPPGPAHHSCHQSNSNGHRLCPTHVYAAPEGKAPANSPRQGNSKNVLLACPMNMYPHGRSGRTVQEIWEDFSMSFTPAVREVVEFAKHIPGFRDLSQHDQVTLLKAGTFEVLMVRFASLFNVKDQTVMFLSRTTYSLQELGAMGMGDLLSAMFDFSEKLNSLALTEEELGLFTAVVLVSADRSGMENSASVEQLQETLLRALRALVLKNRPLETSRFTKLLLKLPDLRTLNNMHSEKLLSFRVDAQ

Only a part is listed here, and it is no random draw. Calls of active or inactive are those of the source.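 How the source made its calls: active means activity above about 14% (limit read from the data; passing the limit was not always enough); inactive means the rest.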

For the assay, the target named is Nuclear receptor subfamily 1 group D member 1 (Homo sapiens) (UniProt P20393). The assay can be described thus: modulators of Rev-erb alpha DNA binding, primary screen, biochemical, FITC-DNA, fluorescence polarization, uHTS (AID 1259318).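 Further: 0% = DMSO wells with 35 nM protein and 100% = DMSO wells with 750 nM protein.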 The conditions noted are these: Rev-erbα–FITC-DNA binding, 90 min, at 10 µM, active compounds read high. On the technique in general: In fluorescence polarisation assays a small probe gives low polarisation when free and higher when bound to something large.
As for `O=C(NCC1(N2CCOCC2)CCCCC1)c1cc2ccccc2o1`, the activity is inactive: -1.36%.
Regarding `Cc1cc(C)cc(N(C(=O)c2ccccc2)C2CCN(C(=O)OC(C)(C)C)CC2)c1`, the activity was inactive: -0.38%.
On to `O=c1[nH]c2ccccc2n1C1CCN(C(c2ccccc2OC(F)(F)F)c2nnnn2C2CCCCC2)CC1` (stereo unspecified), for which the activity was inactive: -2.39%.
To `O=C(NCC1(N2CCCCC2)CCCCC1)c1ccc(Cl)nc1` belongs inactive: -1.45%.
Regarding `CCCCn1nnnc1C(c1ccc(OC)cc1)N1CCC(n2c(=O)[nH]c3ccccc32)CC1` (stereo unspecified), the activity was inactive: -2.79%.
To `CCOC(=O)N1CCC(Nc2ccc(OC)cc2)CC1` belongs inactive: 10.9%; to `COc1ccc(Cl)cc1C(=O)NCC1(N2CCOCC2)CCCCC1`, inactive: -1.67%; to `O=C(OC1CN2CCC1CC2)C1c2ccccc2Oc2ccccc21` (stereo unspecified), inactive: 2.43%.
As for `O=c1[nH]c2ccccc2n1C1CCN(C(c2cc3ccccc3o2)c2nnnn2C2CCCCC2)CC1` (stereo unspecified), the figure is inactive: 4.57%; as for `N#CC1(Nc2ccccc2)CCN(Cc2ccccc2)CC1`, inactive: 5.74%.
For `O=C(NCC1(N2CCCCC2)CCCCC1)c1ccc(Cl)s1`, the activity is inactive: 2.72%.
To `CCCCn1nnnc1C(c1cccs1)N1CCC(n2c(=O)[nH]c3ccccc32)CC1` (stereo unspecified) belongs inactive: -3.81%; to `CCCCn1nnnc1C(CC)N1CCC(n2c(=O)[nH]c3ccccc32)CC1` (stereo unspecified), inactive: 3.33%; to `O=C(NCC1(N2CCCCC2)CCCCC1)c1cccs1`, inactive: -2.67%.
Regarding `O=C(NCC1(N2CCCCC2)CCCCC1)c1ccc(=O)[nH]c1`, the activity is inactive: -10.5%.
As for `CCC(c1nnnn1C1CCCC1)N1CCC(n2c(=O)[nH]c3ccccc32)CC1` (stereo unspecified), the figure is inactive: -5.18%.
As to `COc1ccc(C(=O)NCC2(N3CCCCC3)CCCCC2)c(OC)c1OC`, the activity is inactive: -1.8%.
To `CC(C)(C)OC(=O)N1CCC(N(C(=O)c2ccccc2)c2ccc(F)cc2)CC1` belongs inactive: -0.65%.
To `COc1ccc(C(=O)NCC2(N3CCCCC3)CCCCC2)cc1` belongs inactive: 1.36%; to `Cc1cccc(NC2(C#N)CCN(Cc3ccccc3)CC2)c1`, inactive: 1.06%; to `CSc1ccccc1C(=O)NCC1(N2CCCCC2)CCCCC1`, inactive: 5.81%.
As for `O=c1[nH]c2ccccc2n1C1CCN(C(c2ccccc2)c2nnnn2C2CCCCC2)CC1` (stereo unspecified), the figure is inactive: 1.55%; as for `O=c1[nH]c2ccccc2n1C1CCN(C(c2cccc3ccccc23)c2nnnn2C2CCCC2)CC1` (stereo unspecified), inactive: 5.99%.
Turning to `COc1cc(C(=O)NCC2(N(C)C)CCCCC2)ccc1OC(F)F`, the activity is inactive: -5.62%.
To `CCOC(=O)N1CCC(Nc2cccc(C)c2)CC1` belongs inactive: 2.31%; to `CCOc1ccc(C)cc1CN(CCCl)CCCl`, inactive: 2.58%.
